Source: PubChem BioAssay AID540364 (The Scripps Research Institute Molecular Screening Center, 2011)
The list shows a part of the results, in another mix than the full data. Activity calls are given as the source filed them.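 The calls were made as follows: active = activation above the average of all compounds screened plus 3 SD, cutoff fixed separately per campaign (cut at about 7.5% in these data); inactive = the rest.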

assay: FXN promoter activators, primary screen, cell-based, luciferase luminescence, HEK293 lucGAA850 (AID 540364); conditions: HEK293 lucGAA850 FXN promoter luciferase reporter, 24 h; at 6 µM; hits give high values; percent of 10 µM SAHA response;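 also: 0% = DMSO wells and 100% = 10 µM SAHA wells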

SMILES | activation
N#C/C(=C\c1ccc(N(CCBr)CCBr)cc1)C(N)=O | inactive: -4.47%
CC(=O)c1ccc(N2CC2c2ccncc2)cc1 (stereo not drawn) | inactive: -0.29%
CC(=O)Nc1ccc(Oc2c([N+](=O)[O-])cc([N+](=O)[O-])cc2[N+](=O)[O-])cc1 | inactive: -0.13%
CC(=O)Nc1ccc([As](=O)(O)O)c(O)c1 | inactive: 1.34%
Cc1ccc(NP(=O)(Oc2cccc(C)c2)Oc2cccc(C)c2)nc1 | inactive: 0.45%
c1ccc(-c2nn[nH]n2)c(-c2nn[nH]n2)c1 | inactive: 0.92%
O=C(NC1CCS(=O)(=O)C1)NP(=S)(Oc1ccccc1)Oc1ccccc1 (stereo not drawn) | inactive: -1.84%
CCNC(=S)/N=C(\N)N[N+](=O)[O-] | inactive: 0.08%
O=P1(N(CCCl)CCCl)OCCC2CCCCN21 (stereo not drawn) | inactive: -0.65%
CCC(=O)N1C2C3N(C(=O)CC)C1C1N(C(=O)CC)C(C(N1C(=O)CC)N3C(=O)CC)N2C(=O)CC | inactive: -1.32%
O=C(OC1CN2CCC1CC2)c1ccccc1 (stereo not drawn) | inactive: 2.2%
Cc1ccc(OP(=O)(Nc2ccccn2)Oc2ccc(C)cc2)cc1 | inactive: -1.95%
CC(=O)NC(SC(=S)N(CC(C)C)CC(C)C)C(Cl)(Cl)Cl (stereo not drawn) | inactive: 1.44%
COC(=O)c1cc2c(s1)N=C(c1ccccc1)N(C)P2(=O)N1CCOCC1 (stereo not drawn) | inactive: 0.26%
CN(C)C(=O)Oc1noc2ccccc12 | inactive: -0.64%
O=c1c2cc([N+](=O)[O-])ccc2[nH]c2c([N+](=O)[O-])cc([N+](=O)[O-])cc12 | inactive: -3.06%
Cc1ccccc1OP(=O)(Nc1ccccn1)Oc1ccccc1C | inactive: -0.04%
CC(NC(=O)COC(=O)C(O)(c1ccccc1)c1ccccc1)c1ccccc1 (stereo not drawn) | inactive: -1.89%
O=P(Nc1nccs1)(c1ccccc1)c1nc2ccccc2s1 (stereo not drawn) | inactive: 4.55%
O=P(Nc1nccs1)(Oc1ccccc1)Oc1ccccc1 | inactive: 1.23%
CCOP1(=S)c2c(C)nn(CCC#N)c2N=C(c2ccccc2F)N1C (stereo not drawn) | inactive: 4.11%
CS(=O)(=O)c1cc([N+](=O)[O-])c2no[n+]([O-])c2c1 | inactive: -1.25%
O=C(O)COc1ccc([As](=O)(O)O)cc1[N+](=O)[O-] | inactive: 0.7%
Nc1ccccc1[As](=O)(O)c1ccccc1 | inactive: 0.62%
NC(=O)Nc1ccc([As](=O)(O)O)cc1 | inactive: 1%
CN(C(=O)Cc1ccccc1)[C@@H]1CC[C@]2(CCCO2)C[C@H]1N1CCCC1 | inactive: -2.04%
CCOP1(=S)c2c(C)nn(CCC#N)c2N=C(c2ccc(F)cc2)N1C (stereo not drawn) | inactive: 5%

SMILES | activation
N#CCCN(C(=O)COC(=O)C(O)(c1ccccc1)c1ccccc1)c1ccc(F)cc1 | inactive: -1.95%
CN(C(=O)Cc1ccc(Cl)c(Cl)c1)[C@H]1CC[C@@]2(CCCO2)C[C@@H]1N1CCCC1 | inactive: 1.08%
CN(C)C(=O)c1cc([N+](=O)[O-])cc2c1-c1c(cc([N+](=O)[O-])cc1[N+](=O)[O-])C2=O | inactive: -0.03%
O=[N+]([O-])c1ccc2c(c1)nnn2O | inactive: -1.53%
O=C(OC1CN2CCC1CC2)c1ccc(Cl)cc1 (stereo not drawn) | inactive: -0.1%
CS(=O)(=O)c1ccc(Cl)c(NC(=O)COC(=O)C(O)(c2ccccc2)c2ccccc2)c1 | inactive: -0.07%
COc1cc(C(=O)NCC2(N3CCOCC3)CCCCC2)cc(Cl)c1OC(C)C | inactive: -0.5%
O=[As](O)(O)c1cccnc1 | inactive: 0%
O=[As](O)(c1cccc(O)c1)c1cccc(O)c1 | inactive: 0.59%
Cc1cccc(OCC(=O)OC2CN3CCC2CC3)c1 (stereo not drawn) | inactive: 3.02%
Nc1cccc2c([As](=O)(O)O)cccc12 | inactive: -2.1%
Cc1ccc(NCCc2c([N+](=O)[O-])cc([N+](=O)[O-])cc2[N+](=O)[O-])cc1 | inactive: 3.6%
CCCOP(=S)(Nc1nc(N)cc(=O)[nH]1)OCCC | inactive: 2.7%
CCOP(=O)(Nc1cccc2ccccc12)OCC | inactive: -0.22%
COc1cc(C2NCCC3(OCCO3)C2(C)C)cc(OC)c1OC (stereo not drawn) | inactive: -1.25%
CCOP(=O)(NC(=NC(C)c1ccccc1)NC(C)c1ccccc1)OCC (stereo not drawn) | inactive: -0.87%
CCC1=CC2Cc3nc4ccc(Cl)cc4c(N)c3C(C1)C2 (stereo not drawn) | inactive: -6.39%
O=P1(Nc2ccccn2)COc2ccccc2OC1 | inactive: 3.12%
CN(CCCl)Cc1cc(Cl)c(NC2=NCCN2)c(Cl)c1 | inactive: 0.49%
CCOP(=O)(Nc1ccc(C)cn1)OCC | inactive: -2.66%
CC(C)(C)C(=O)NC(Sc1ncccn1)C(Cl)(Cl)Cl (stereo not drawn) | inactive: 2.66%
Clc1n[nH]nc1-c1nn[nH][15n]1 | inactive: 0.77%
O=P1(N(CCCl)CCCl)NCCC(C(F)(F)F)O1 (stereo not drawn) | inactive: 1.14%
COc1ccccc1CNC(=O)COC(=O)C(O)(c1ccccc1)c1ccccc1 | inactive: 0.37%
CN(C(=O)Cc1ccc(Cl)c(Cl)c1)[C@@H]1CCCC[C@H]1N1CCCC1 | inactive: -1.69%
CC(C)/C=N\N=C(\N)N[N+](=O)[O-] | inactive: -0.81%
